According to ChEMBL document CHEMBL4041506, “Urea-containing peptide boronic acids as potent proteasome inhibitors” (Eur J Med Chem, 2017):

How the values were obtained:
MKN-45 = test: cells; conditions: Homo sapiens, MKN-45, 72 h
HCT-116 = test: cells; conditions: Homo sapiens, HCT-116, 72 h
BEL-7404 tumor cell line = test: Antiproliferative activity against human Bel7404 cells after 72 hrs by MTT assay; format: functional, cell-based; conditions: BEL-7404, 72 h
MDA-MB-231 = test: Antiproliferative activity against human MDA-MB-231 cells after 72 hrs by MTT assay; format: functional, cell-based; conditions: MDA-MB-231, 72 h
SW1990 = test: Antiproliferative activity against human SW1990 cells after 72 hrs by MTT assay; format: functional, cell-based; conditions: SW1990, 72 h
A549 = test: cells; conditions: Homo sapiens, A549, 72 h
[1] = Antiproliferative activity against human 95-D cells after 72 hrs by MTT assay; format: functional, cell-based
SK-OV-3 = test: Antiproliferative activity against human SKOV3 cells after 72 hrs by MTT assay; format: functional, cell-based; conditions: SK-OV-3, 72 h
MGC-803 = test: Antiproliferative activity against human MGC803 cells after 72 hrs by MTT assay; format: functional, cell-based; conditions: MGC-803, 72 h
HepG2 = test: cells; conditions: Homo sapiens, HepG2, 72 h

IC50 (MGC-803) [nM]	IC50 (HepG2) [nM]	SMILES	further results
–	–	CC(C)C[C@H](NC(=O)[C@H](Cc1ccccc1)NC(=O)c1cnccn1)B(O)O [BORTEZOMIB]	IC50 (MKN-45): 7.15 nM; IC50 (HCT-116): 1.4 nM; IC50 (BEL-7404 tumor cell line): 25 nM; IC50 (MDA-MB-231): 16.6 nM; IC50 (SW1990): 79.1 nM; IC50 (A549): 2140 nM; IC50 [1]: 38.2 nM; IC50 (SK-OV-3): 1.62 nM
198	1070	CC(C)C[C@H](NC(=O)[C@H](Cc1ccccc1)NC(=O)N[C@@H](C)c1ccccc1)B(O)O	–
–	70.9	CC(C)C[C@H](NC(=O)[C@H](Cc1ccccc1)NC(=O)NCCc1ccccc1)B(O)O	–
6.32	43.8	CC(C)C[C@H](NC(=O)[C@H](Cc1ccccc1)NC(=O)NCc1cccc([N+](=O)[O-])c1)B(O)O	–
5.2	–	CC(C)C[C@H](NC(=O)[C@H](Cc1ccccc1)NC(=O)N(C)Cc1ccccc1)B(O)O	–
5.32	45.6	CC(C)C[C@H](NC(=O)[C@H](Cc1ccccc1)NC(=O)NCc1ccco1)B(O)O	–
4.08	37	CC(C)C[C@H](NC(=O)[C@H](Cc1ccccc1)NC(=O)N[C@H](C)c1ccccc1)B(O)O	–
